In general, pIC50 refers to −log10 of the IC50, conventionally taken in molar units.

Chains of the proteins cited; added tags and fusions are not shown.
UniProt P49336, whole entry: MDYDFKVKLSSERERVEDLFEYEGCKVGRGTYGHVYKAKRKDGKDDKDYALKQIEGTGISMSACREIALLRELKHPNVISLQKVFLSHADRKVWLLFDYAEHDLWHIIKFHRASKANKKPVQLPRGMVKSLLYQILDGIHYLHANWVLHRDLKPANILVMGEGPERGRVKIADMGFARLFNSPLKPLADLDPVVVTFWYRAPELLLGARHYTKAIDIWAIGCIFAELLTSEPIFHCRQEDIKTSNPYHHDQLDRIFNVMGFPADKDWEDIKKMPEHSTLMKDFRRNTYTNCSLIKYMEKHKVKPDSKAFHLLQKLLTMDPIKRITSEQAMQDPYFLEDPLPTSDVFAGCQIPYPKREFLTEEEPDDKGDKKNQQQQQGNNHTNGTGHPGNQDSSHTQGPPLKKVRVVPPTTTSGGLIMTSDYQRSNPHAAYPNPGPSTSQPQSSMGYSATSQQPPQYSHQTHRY
UniProt P24863, whole entry partner: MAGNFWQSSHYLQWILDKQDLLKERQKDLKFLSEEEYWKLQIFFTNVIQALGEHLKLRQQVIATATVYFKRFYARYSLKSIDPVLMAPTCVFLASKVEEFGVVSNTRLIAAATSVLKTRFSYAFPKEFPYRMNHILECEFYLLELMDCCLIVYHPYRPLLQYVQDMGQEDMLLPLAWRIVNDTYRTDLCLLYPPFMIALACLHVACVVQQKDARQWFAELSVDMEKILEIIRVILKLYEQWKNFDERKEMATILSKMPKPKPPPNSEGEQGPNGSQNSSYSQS

1 molecule from patent publication US20230365620A1, “CYCLIN-DEPENDENT KINASE INHIBITORS AND METHODS OF USE” (DANA-FARBER CANCER INSTITUTE, INC., priority 2018, published 2023) can be followed below.

This experiment has as its target CDK8 (Homo sapiens, UniProt P49336). Briefly: LANTHASCREEN Eu Kinase Binding Assay (competitive kinase binding, Tracer displacement). Particulars: read-out: Enzyme IC50; displacing the Tracer from binding to the target kinase. (In TR-FRET formats the signal depends on donor and acceptor labels being close together.)

Each structure is given as a SMILES string. pIC50: −log10 of the molar value.

For `CC(=O)N(C)[C@H]1CC[C@@]2(C)C(CC[C@@H]3C2CC[C@]2(C)[C@@H](c4ccc5ccncc5c4)CC[C@@H]32)C1` (stereo partly shown), the pIC50 is above 7.00.
